The entries are a selection whose mix differs from that of the whole data set. Results filed as inconclusive are left out. Activity calls are given as the source filed them. Calls follow the shape of the dose curve; as a rule, active = well fitted inhibition curve with a large enough effect in the polarisation, with a control signal flat (not every such curve was filed as active); inconclusive = small, poorly fitted or top-dose-only effect, or effect the other way, or a change in a side signal; inactive = no such curve, though single readings can be large or run the other way; the % refers to the polarisation.
target: Menin (Homo sapiens) (UniProt O00255); assay: qHTS Assay for Inhibitors Targeting the Menin-MLL Interaction in MLL Related Leukemias: Competition With Texas Red Labeled MLL-derived Mutant Peptide; details: fluorescence polarization; at 61.6 µM (top of the series) unless noted; also: % of control where 0% means no effect

By UniProt entry, the sequences of proteins in these tests, tags left out.
UniProt O00255, whole entry: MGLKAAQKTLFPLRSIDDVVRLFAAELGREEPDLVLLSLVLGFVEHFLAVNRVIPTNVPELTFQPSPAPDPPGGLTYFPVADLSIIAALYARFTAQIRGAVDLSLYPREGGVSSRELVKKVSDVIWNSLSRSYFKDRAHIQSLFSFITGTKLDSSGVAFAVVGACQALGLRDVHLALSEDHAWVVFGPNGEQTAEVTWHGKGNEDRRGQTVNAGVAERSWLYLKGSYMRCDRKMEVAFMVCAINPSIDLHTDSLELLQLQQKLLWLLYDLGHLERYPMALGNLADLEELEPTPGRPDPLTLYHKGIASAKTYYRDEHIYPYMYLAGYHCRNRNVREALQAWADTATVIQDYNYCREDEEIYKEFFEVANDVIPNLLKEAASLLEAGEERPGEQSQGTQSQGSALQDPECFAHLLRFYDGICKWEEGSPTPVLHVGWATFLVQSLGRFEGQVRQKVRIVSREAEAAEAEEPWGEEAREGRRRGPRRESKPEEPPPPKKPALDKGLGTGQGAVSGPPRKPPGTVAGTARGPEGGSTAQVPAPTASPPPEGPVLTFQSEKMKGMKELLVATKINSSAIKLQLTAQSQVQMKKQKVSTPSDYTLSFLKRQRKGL
UniProt Q03164, whole entry partner: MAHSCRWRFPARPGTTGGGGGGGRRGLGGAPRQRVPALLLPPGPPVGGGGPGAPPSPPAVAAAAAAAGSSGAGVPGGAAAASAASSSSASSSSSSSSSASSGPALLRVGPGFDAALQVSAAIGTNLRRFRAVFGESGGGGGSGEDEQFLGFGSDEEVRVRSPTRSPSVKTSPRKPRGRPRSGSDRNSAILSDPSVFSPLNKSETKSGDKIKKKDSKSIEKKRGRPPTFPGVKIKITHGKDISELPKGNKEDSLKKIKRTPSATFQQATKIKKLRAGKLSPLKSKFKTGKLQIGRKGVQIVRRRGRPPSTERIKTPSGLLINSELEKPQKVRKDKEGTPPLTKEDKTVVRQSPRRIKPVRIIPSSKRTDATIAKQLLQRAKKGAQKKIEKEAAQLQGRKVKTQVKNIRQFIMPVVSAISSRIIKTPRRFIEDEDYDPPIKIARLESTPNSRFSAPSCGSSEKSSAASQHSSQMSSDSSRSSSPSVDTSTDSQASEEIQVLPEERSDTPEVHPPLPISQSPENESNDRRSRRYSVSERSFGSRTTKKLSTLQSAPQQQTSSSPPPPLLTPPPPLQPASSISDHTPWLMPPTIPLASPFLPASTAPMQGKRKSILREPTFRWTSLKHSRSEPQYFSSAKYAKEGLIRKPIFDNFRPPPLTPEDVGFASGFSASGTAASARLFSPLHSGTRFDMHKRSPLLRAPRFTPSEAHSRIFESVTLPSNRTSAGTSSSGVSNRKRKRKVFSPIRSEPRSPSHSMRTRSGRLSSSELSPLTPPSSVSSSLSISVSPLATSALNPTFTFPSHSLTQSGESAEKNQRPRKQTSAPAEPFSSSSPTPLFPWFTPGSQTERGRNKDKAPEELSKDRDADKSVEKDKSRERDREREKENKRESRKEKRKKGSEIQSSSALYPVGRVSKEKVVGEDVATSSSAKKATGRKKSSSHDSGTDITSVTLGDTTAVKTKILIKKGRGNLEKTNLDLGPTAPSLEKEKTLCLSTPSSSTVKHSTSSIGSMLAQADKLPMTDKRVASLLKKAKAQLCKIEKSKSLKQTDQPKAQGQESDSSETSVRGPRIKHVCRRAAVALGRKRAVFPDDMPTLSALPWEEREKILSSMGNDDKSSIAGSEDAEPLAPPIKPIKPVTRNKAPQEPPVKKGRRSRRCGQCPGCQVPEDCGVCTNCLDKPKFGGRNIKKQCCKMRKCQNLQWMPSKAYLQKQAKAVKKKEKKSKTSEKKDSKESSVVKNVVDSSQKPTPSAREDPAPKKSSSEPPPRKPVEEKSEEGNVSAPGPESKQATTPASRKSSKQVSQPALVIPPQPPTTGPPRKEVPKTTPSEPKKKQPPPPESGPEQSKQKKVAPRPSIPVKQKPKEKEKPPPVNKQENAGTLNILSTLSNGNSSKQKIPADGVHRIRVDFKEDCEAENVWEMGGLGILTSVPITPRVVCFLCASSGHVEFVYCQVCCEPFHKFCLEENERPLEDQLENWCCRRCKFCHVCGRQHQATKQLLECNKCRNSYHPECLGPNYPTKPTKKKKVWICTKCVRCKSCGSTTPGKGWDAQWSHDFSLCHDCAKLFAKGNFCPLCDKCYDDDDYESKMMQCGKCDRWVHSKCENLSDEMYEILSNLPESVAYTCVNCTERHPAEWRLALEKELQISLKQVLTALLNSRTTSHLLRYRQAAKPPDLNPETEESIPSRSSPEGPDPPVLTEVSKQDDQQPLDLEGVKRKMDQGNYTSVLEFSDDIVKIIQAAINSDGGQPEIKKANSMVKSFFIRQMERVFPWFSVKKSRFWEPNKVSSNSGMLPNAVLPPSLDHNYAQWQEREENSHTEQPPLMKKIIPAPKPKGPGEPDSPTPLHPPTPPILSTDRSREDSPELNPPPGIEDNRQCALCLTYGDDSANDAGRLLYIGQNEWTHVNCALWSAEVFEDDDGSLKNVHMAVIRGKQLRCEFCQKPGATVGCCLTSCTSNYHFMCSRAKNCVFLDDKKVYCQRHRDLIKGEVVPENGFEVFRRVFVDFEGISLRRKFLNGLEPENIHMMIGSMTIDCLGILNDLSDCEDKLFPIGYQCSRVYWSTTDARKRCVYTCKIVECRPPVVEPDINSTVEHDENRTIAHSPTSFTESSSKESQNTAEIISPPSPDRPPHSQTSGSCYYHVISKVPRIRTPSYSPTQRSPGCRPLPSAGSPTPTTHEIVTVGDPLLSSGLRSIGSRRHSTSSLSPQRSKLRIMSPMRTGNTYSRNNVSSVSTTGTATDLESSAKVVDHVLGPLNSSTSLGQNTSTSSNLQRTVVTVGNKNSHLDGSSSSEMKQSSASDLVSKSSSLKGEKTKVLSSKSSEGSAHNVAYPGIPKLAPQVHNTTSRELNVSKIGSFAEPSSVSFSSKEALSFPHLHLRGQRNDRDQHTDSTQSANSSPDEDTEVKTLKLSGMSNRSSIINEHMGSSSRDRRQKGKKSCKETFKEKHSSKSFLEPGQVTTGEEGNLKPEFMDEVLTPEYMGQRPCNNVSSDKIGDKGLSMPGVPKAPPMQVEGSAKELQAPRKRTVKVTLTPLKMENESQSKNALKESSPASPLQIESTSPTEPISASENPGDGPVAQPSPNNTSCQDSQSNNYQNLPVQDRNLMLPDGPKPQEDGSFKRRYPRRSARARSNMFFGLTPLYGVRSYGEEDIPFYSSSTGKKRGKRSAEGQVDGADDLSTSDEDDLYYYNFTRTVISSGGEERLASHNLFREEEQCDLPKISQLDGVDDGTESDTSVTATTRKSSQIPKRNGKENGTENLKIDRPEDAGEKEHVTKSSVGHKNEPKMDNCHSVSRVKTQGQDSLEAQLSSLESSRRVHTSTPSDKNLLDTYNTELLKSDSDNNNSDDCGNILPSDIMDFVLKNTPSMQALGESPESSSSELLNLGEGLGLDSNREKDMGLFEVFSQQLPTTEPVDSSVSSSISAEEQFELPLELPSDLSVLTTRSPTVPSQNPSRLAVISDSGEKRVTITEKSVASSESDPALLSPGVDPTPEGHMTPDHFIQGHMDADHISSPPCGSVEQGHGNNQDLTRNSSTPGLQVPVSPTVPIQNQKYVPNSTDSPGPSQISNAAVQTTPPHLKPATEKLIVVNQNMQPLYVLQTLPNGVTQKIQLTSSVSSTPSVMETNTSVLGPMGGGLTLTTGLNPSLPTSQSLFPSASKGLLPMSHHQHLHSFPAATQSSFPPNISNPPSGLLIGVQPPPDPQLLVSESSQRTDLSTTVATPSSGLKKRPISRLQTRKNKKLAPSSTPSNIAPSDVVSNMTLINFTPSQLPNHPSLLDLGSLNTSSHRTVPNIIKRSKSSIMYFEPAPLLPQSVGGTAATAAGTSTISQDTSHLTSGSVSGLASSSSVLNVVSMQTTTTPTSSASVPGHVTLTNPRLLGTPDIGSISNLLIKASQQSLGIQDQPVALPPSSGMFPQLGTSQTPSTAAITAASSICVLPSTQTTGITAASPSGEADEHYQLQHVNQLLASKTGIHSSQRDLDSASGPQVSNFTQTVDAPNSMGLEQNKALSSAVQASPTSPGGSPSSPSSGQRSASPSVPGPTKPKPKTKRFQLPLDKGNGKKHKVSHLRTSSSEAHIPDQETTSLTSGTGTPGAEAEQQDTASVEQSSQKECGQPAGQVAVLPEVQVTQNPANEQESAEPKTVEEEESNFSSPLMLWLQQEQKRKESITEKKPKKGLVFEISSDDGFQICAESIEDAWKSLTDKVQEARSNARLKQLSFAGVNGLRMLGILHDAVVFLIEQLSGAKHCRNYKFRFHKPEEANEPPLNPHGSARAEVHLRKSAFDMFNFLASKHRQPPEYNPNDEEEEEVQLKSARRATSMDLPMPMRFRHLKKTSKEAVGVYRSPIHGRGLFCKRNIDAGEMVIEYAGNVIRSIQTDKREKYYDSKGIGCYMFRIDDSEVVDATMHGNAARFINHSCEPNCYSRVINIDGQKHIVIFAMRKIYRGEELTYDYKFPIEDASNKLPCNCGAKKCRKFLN

SMILES	FP activity change, negative = inhibition
COc1ccc(NP(C)(=O)Oc2ccccc2OC)cc1 (stereo not given)	inactive: -4.01%
CN(C)CCOC(=O)C(O)(c1ccccc1)C1CCCCC1 (stereo not given)	inactive: -20.4%
COc1ccc(OP(C)(=O)Nc2cccc(Br)c2)cc1 (stereo not given)	inactive: -21.7%
O=[N+]([O-])c1ccc(OP2(=O)COCCO2)cc1 (stereo not given)	inactive: 20.6%
CCOP(C)(=S)SCC(=O)NC(C)(CC)C(=O)O (stereo not given)	inactive: 16.7%
CCN(CCCl)Cc1ccccc1C	inactive: -12.9%
Cc1ccccc1NP(C)(=O)Nc1ccccc1C	inactive: 22.8%
CP(=O)(Nc1ccc2c(c1)OCCO2)Oc1ccccc1 (stereo not given)	inactive: 4.96%
CC(C)c1ccc(OP(C)(=O)Nc2ccc(SC(F)(F)F)cc2)cc1 (stereo not given)	inactive: -3.37%
CP(=O)(Nc1ccccc1F)Oc1ccccc1 (stereo not given)	inactive: 1.57%
COc1ccc(OP(C)(=O)Nc2ccc(SC(F)(F)F)cc2)cc1 (stereo not given)	inactive: -7.57%
CCOC(=O)c1ccc(NP(C)(=O)Oc2ccc(F)cc2)cc1 (stereo not given)	inactive: -7.96%
CP(=O)(Nc1ccccc1)Oc1ccc(F)cc1 (stereo not given)	inactive: -19.7%
CCN(CC)CCCOC(=O)C(O)(c1ccccc1)C1CCCCC1 (stereo not given)	inactive: -5.81%
COc1ccc(OP(C)(=O)Nc2ccccc2Br)cc1 (stereo not given)	inactive: 1.4%
COc1ccccc1OP(C)(=O)Nc1ccc(C)c(C)c1 (stereo not given)	inactive: -1.3%
Cc1cc(C)cc(OP(C)(=O)Nc2cccc(C(F)(F)F)c2)c1 (stereo not given)	inactive: -22%
CP(=O)(OCCOc1ccccc1)OCCOc1ccccc1	inactive: -6.99%
CP(=O)(Nc1ccc(Cl)cc1Cl)Oc1ccccc1 (stereo not given)	inactive: -10.5%
CN(C)CCOC(=O)C(O)(c1ccccc1)C1CCCC1 (stereo not given)	inactive: 0.027%
COc1ccc(OP(C)(=O)Nc2ccccn2)cc1 (stereo not given)	inactive: 1.84%
CCc1ccc(OP(C)(=O)O)cc1	inactive: -2.11%
COc1ccccc1OP(C)(=O)Nc1ccc(C)cc1C (stereo not given)	inactive: -7.73%
CP(=O)(Nc1ccccn1)Oc1ccccc1 (stereo not given)	inactive: -7.58%
O=[N+]([O-])c1cc([N+](=O)[O-])c(Nc2ccccn2)c([N+](=O)[O-])c1	inactive: 9.31%
Cc1c(NP(C)(=O)Oc2ccc(C(C)C)cc2)c(=O)n(-c2ccccc2)n1C (stereo not given)	inactive: -29.3%
CCc1ccc(OP(C)(=O)Nc2cccnc2)cc1 (stereo not given)	inactive: 0.586%
CP(=O)(Oc1ccccc1)N1CCOC1=O (stereo not given)	inactive: 0.474%
OCCSCCO	inactive: -2.38%
COc1ccccc1OP(C)(=O)Nc1c(C)n(C)n(-c2ccccc2)c1=O (stereo not given)	inactive: -6.11%

From PubChem BioAssay AID1768 (National Center for Advancing Translational Sciences (NCATS), 2009)
